Values of other authors, collected in paper PMC12039075 (Structure (London, England : 1993), 2022).

System: human μ-opioid receptor (MOR)

For `CN1CC[C@]23c4c5ccc(O)c4O[C@H]2[C@@H](O)C=C[C@H]3[C@H]1C5` [morphine], the “binding to MOR” value is given as ~ 2.5 nM.
